Tests used:
human hepatocytes [1] = assay: Metabolite identification in human hepatocytes; format: in vitro ADME; settings: 5-MeO-DMT 10 μM, up to 120 minutes
Protocol: All samples were stored at −80° C. (nominal) prior to analysis.
Appropriate blank and control samples were also analysed. […] (nominal).

human hepatocytes [2] = assay: Metabolic stability in Hμrel human hepatocyte co-culture; format: in vitro ADME
Protocol: The metabolic stability of 5-MIAA and 5-methoxytryptophol was investigated in a Hμrel co-culture assay with human hepatocytes (Hμrel HumanPool™, primary hepatic co-culture model from Visikol Inc.).
The incubations were performed using 1 and 10 μM initial concentrations and sampling at 0, 1, 2, 4, 8, 24, 48, and 72 hours (h) time points. The samples were analysed using UPLC/QE-orbitrap-MS.
The remaining LC/MS peak areas detected for test compounds after each incubation time point with Hμrel co-culture assay, relative to corresponding 0 min incubation samples, are shown in the tables below.

**Q.** How did the “relative proportion of compounds identified” value (human hepatocytes [1]) turn out when 5-Methoxyindole acetic acid [5-MIAA] was run?
**A.** 61%

**Q.** What about the “relative LC/MS peak area” value (human hepatocytes [2]; 1 μM, hepatocytes, 0 h) of the same substance?
**A.** 100%

**Q.** And the “relative LC/MS peak area” value (human hepatocytes [2]; 1 μM, hepatocytes, 1 h)?
**A.** 98%

**Q.** What about the “relative LC/MS peak area” value (human hepatocytes [2]; 1 μM, hepatocytes, 2 h) of the same substance?
**A.** 100%

**Q.** What about the “relative LC/MS peak area” value (human hepatocytes [2]; 1 μM, hepatocytes, 4 h) of the same substance?
**A.** 99%

**Q.** And the “relative LC/MS peak area” value (human hepatocytes [2]; 1 μM, hepatocytes, 8 h)?
**A.** 95%

**Q.** What about the “relative LC/MS peak area” value (human hepatocytes [2]; 1 μM, hepatocytes, 24 h) of the same substance?
**A.** 99%

**Q.** What about the “relative LC/MS peak area” value (human hepatocytes [2]; 1 μM, hepatocytes, 48 h) of the same substance?
**A.** 88%

**Q.** And the “relative LC/MS peak area” value (human hepatocytes [2]; 1 μM, hepatocytes, 72 h)?
**A.** 82%

**Q.** What about the half-life (human hepatocytes [2]; 1 μM, human hepatocytes) of the same substance?
**A.** 15 400 min

**Q.** And the “relative LC/MS peak area” value (human hepatocytes [2]; 1 μM, stromal cells, 0 h)?
**A.** 100%

**Q.** What about the “relative LC/MS peak area” value (human hepatocytes [2]; 1 μM, stromal cells, 4 h) of the same substance?
**A.** 103%

**Q.** And the “relative LC/MS peak area” value (human hepatocytes [2]; 1 μM, stromal cells, 8 h)?
**A.** 107%

**Q.** And the “relative LC/MS peak area” value (human hepatocytes [2]; 1 μM, stromal cells, 24 h)?
**A.** 108%

**Q.** And the “relative LC/MS peak area” value (human hepatocytes [2]; 1 μM, stromal cells, 48 h)?
**A.** 111%

**Q.** What about the “relative LC/MS peak area” value (human hepatocytes [2]; 1 μM, stromal cells, 72 h) of the same substance?
**A.** 135%

**Q.** And the “relative LC/MS peak area” value (human hepatocytes [2]; 10 μM, hepatocytes, 0 h)?
**A.** 100%

**Q.** And the “relative LC/MS peak area” value (human hepatocytes [2]; 10 μM, hepatocytes, 1 h)?
**A.** 97%

**Q.** And the “relative LC/MS peak area” value (human hepatocytes [2]; 10 μM, hepatocytes, 2 h)?
**A.** 100%

**Q.** What about the “relative LC/MS peak area” value (human hepatocytes [2]; 10 μM, hepatocytes, 4 h) of the same substance?
**A.** 103%

**Q.** And the “relative LC/MS peak area” value (human hepatocytes [2]; 10 μM, hepatocytes, 8 h)?
**A.** 96%

**Q.** What about the “relative LC/MS peak area” value (human hepatocytes [2]; 10 μM, hepatocytes, 24 h) of the same substance?
**A.** 96%

**Q.** What about the “relative LC/MS peak area” value (human hepatocytes [2]; 10 μM, hepatocytes, 48 h) of the same substance?
**A.** 86%

**Q.** What about the “relative LC/MS peak area” value (human hepatocytes [2]; 10 μM, hepatocytes, 72 h) of the same substance?
**A.** 75%

**Q.** And the “relative LC/MS peak area” value (human hepatocytes [2]; 10 μM, stromal cells, 0 h)?
**A.** 100%

**Q.** And the “relative LC/MS peak area” value (human hepatocytes [2]; 10 μM, stromal cells, 4 h)?
**A.** 101%

**Q.** What about the “relative LC/MS peak area” value (human hepatocytes [2]; 10 μM, stromal cells, 8 h) of the same substance?
**A.** 106%

**Q.** And the “relative LC/MS peak area” value (human hepatocytes [2]; 10 μM, stromal cells, 24 h)?
**A.** 97%

**Q.** And the “relative LC/MS peak area” value (human hepatocytes [2]; 10 μM, stromal cells, 48 h)?
**A.** 103%

**Q.** What about the “relative LC/MS peak area” value (human hepatocytes [2]; 10 μM, stromal cells, 72 h) of the same substance?
**A.** 115%

— patent publication US20250170099A1, “TREATMENT OF POSTNATAL DEPRESSION” (GH RESEARCH IRELAND LIMITED, priority 2022, published 2025)
